Data as given in patent publication US6908912B2, “Pyrithione biocides enhanced by zinc metal ions and organic amines” (priority 1999, dated 2005).

Experiment: Solubility and stability of concentrated mixtures of sodium pyrithione, ZnCl2 and organic amines (Example 55)
Settings: mixture of NaPT 10.00, ZnCl2 1.74, organic amine(s) 60.50, water 27.76 weight %; room temperature

| Appearance at 24 Hrs | Appearance at 72 Hrs | Compound |
| --- | --- | --- |
| S | S | 1-amino-2-propanol [Mixture 1A2P] |
| S | S | NCCO [MEA, monoethanolamine] |
